The values below come from patent publication US20260242759A1, “GQ/11 Protein Peptidomimetics” (Vrije Universiteit Brussel, priority 2022, published 2026).

In this data set the test system is HEK293 cells overexpressing the ghrelin receptor. The conditions noted are these: SulfoCy5-labeled peptides at 5 and 10 μM, 3 h 45 min, 37° C.
Regarding “H-C(SulfoCy5)-Ahx-KKKFAc[PraVKDAzk]ILQLNLKEYNLV-OH [SBL-GQ-21]”, the “cell internalization (remaining fluorescence, words)” value is “almost no internalization”.
Consider “H-C(SulfoCy5)-Ahx-RRRRFAc[PraVKDAzk]ILQLNLKEYNLV-OH [SBL-GQ-22]”, for which the “cell internalization (remaining fluorescence, words)” value is reported as “little internalization capacity”.
On to “H-C(SulfoCy5)-Ahx-RRWWRRWRRFAc[PraVKDAzk]ILQLNLKEYNLV-OH [SBL-GQ-24]”, for which the “cell internalization (remaining fluorescence, words)” value is on record as “highest capacity to cross the cell membrane”.
